Membrane permeability of cyclic peptides

Data: CycPeptMPDB; original report Kelly et al. 2021, doi:10.1021/jacs.0c06115.

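The data file gives no further conditions (lipid, pH, time, direction or concentration), and values from different papers need not be comparable. The list need not hold all peptides of the study. Entries at the database's floor value (log10 P of -10) are not listed.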

PAMPA is the parallel artificial membrane permeability assay, which has no cells and reads passive diffusion.
Permeability is given as log10 of P in cm/s; higher (less negative) is more permeable.

compound	PAMPA (log10 cm/s)
CC[C@H]1NC(=O)[C@@H](NC(=O)[C@@H](CC(C)C)N(C)C(=O)[C@@H]2CCCN2C(C)=O)[C@@H](C)OC(=O)[C@@H]2CCCN2C(=O)[C@H](CC(C)C)NC(=O)[C@@H](C)N(C)C(=O)[C@@H](Cc2cccc3ccccc23)NC(=O)[C@H](Cc2ccc(OC)cc2)NC1=O	-5.64
CC[C@H]1NC(=O)[C@@H](NC(=O)[C@@H](CC(C)C)N(C)C(=O)[C@@H]2CCCN2C(C)=O)[C@@H](C)OC(=O)[C@@H]2CCCN2C(=O)[C@H](CC(C)C)NC(=O)[C@@H](C)N(C)C(=O)[C@@H](CC2CCCCC2)NC(=O)[C@H](CCc2ccccc2)NC1=O	-5.96
CCC[C@@H]1NC(=O)[C@@H](CC(C)C)NC(=O)[C@@H](NC(=O)[C@@H](CC(C)C)N(C)C(=O)[C@@H]2CCCN2C(C)=O)[C@@H](C)OC(=O)[C@@H]2CCCN2C(=O)[C@H](CC(C)C)NC(=O)[C@@H](C)N(C)C(=O)[C@@H](Cc2ccc(F)c(F)c2)NC1=O	-5.42
CC(=O)N1CCC[C@H]1C(=O)N(C)[C@H](CC(C)C)C(=O)N[C@@H]1C(=O)N[C@H](Cc2ccccc2)C(=O)N[C@@H](CCc2ccccc2)C(=O)N[C@H](CC(C)C)C(=O)N(C)[C@H](C)C(=O)N[C@@H](CC(C)C)C(=O)N2CCC[C@H]2C(=O)O[C@@H]1C	-5.36
CCC[C@@H]1NC(=O)[C@@H](CC2CCCCC2)NC(=O)[C@@H](NC(=O)[C@@H](CC(C)C)N(C)C(=O)[C@@H]2CCCN2C(C)=O)[C@@H](C)OC(=O)[C@@H]2CCCN2C(=O)[C@H](CC(C)C)NC(=O)[C@@H](C)N(C)C(=O)[C@@H](Cc2ccc(F)c(F)c2)NC1=O	-5.74
CC[C@@H]1NC(=O)[C@@H](CC)NC(=O)[C@@H](NC(=O)[C@@H](CC(C)C)N(C)C(=O)[C@@H]2CCCN2C(C)=O)[C@@H](C)OC(=O)[C@@H]2CCCN2C(=O)[C@H](CC(C)C)NC(=O)[C@@H](C)N(C)C(=O)[C@@H](Cc2cccc3ccccc23)NC1=O	-5.93
CC[C@@H]1NC(=O)[C@@H](Cc2ccccc2)NC(=O)[C@@H](NC(=O)[C@@H](CC(C)C)N(C)C(=O)[C@@H]2CCCN2C(C)=O)[C@@H](C)OC(=O)[C@@H]2CCCN2C(=O)[C@H](CC(C)C)NC(=O)[C@@H](C)N(C)C(=O)[C@@H](Cc2ccc(F)cc2)NC1=O	-6.03
COc1ccc(C[C@@H]2NC(=O)[C@@H](Cc3ccc(F)cc3)NC(=O)[C@@H](NC(=O)[C@@H](CC(C)C)N(C)C(=O)[C@@H]3CCCN3C(C)=O)[C@@H](C)OC(=O)[C@@H]3CCCN3C(=O)[C@H](CC(C)C)NC(=O)[C@@H](C)N(C)C(=O)[C@@H](Cc3cccc4ccccc34)NC2=O)cc1	-6.85
CC(=O)N1CCC[C@H]1C(=O)N(C)[C@H](CC(C)C)C(=O)N[C@@H]1C(=O)N[C@H](CC(C)C)C(=O)N[C@@H](Cc2ccccc2)C(=O)N[C@H](Cc2ccc(F)c(F)c2)C(=O)N(C)[C@H](C)C(=O)N[C@@H](CC(C)C)C(=O)N2CCC[C@H]2C(=O)O[C@@H]1C	-5.58
CC(=O)N1CCC[C@H]1C(=O)N(C)[C@H](CC(C)C)C(=O)N[C@@H]1C(=O)N[C@H](Cc2ccc(F)cc2)C(=O)N[C@@H](CCc2ccccc2)C(=O)N[C@H](Cc2ccc(F)c(F)c2)C(=O)N(C)[C@H](C)C(=O)N[C@@H](CC(C)C)C(=O)N2CCC[C@H]2C(=O)O[C@@H]1C	-5.98
CCC[C@@H]1NC(=O)[C@@H](Cc2cccc3ccccc23)NC(=O)[C@@H](NC(=O)[C@@H](CC(C)C)N(C)C(=O)[C@@H]2CCCN2C(C)=O)[C@@H](C)OC(=O)[C@@H]2CCCN2C(=O)[C@H](CC(C)C)NC(=O)[C@@H](C)N(C)C(=O)[C@@H](CC(C)C)NC1=O	-5.32
CCC[C@@H]1NC(=O)[C@@H](Cc2ccc(F)cc2)NC(=O)[C@@H](NC(=O)[C@@H](CC(C)C)N(C)C(=O)[C@@H]2CCCN2C(C)=O)[C@@H](C)OC(=O)[C@@H]2CCCN2C(=O)[C@H](CC(C)C)NC(=O)[C@@H](C)N(C)C(=O)[C@@H](Cc2ccccc2)NC1=O	-5.54

A selection of 2 entries from above:

| compound | PAMPA (log10 cm/s) |
|---|---|
| CC[C@H]1NC(=O)[C@@H](NC(=O)[C@@H](CC(C)C)N(C)C(=O)[C@@H]2CCCN2C(C)=O)[C@@H](C)OC(=O)[C@@H]2CCCN2C(=O)[C@H](CC(C)C)NC(=O)[C@@H](C)N(C)C(=O)[C@@H](CC2CCCCC2)NC(=O)[C@H](CCc2ccccc2)NC1=O | -5.96 |
| CC(=O)N1CCC[C@H]1C(=O)N(C)[C@H](CC(C)C)C(=O)N[C@@H]1C(=O)N[C@H](CC(C)C)C(=O)N[C@@H](Cc2ccccc2)C(=O)N[C@H](Cc2ccc(F)c(F)c2)C(=O)N(C)[C@H](C)C(=O)N[C@@H](CC(C)C)C(=O)N2CCC[C@H]2C(=O)O[C@@H]1C | -5.58 |